The values that follow come from patent US11931424B2, “Combination MCL-1 inhibitors with anti-body drug conjugates” (Gilead Sciences, Inc., priority 2021, dated 2024).

Molecules are shown by their SMILES. Where a name gives a salt, the structure may show the parent alone.

The test relates to panel of breast cancer cell lines. Nature of the test: Compound A with targeted agents and chemotherapies, 72-hour in vitro proliferation assays. Format: cell-based. The following applies: compound A × partner, 72-hour proliferation.

In the case of `COc1cccc2c1C(=O)c1c(O)c3c(c(O)c1C2=O)C[C@@](O)(C(=O)CO)C[C@@H]3O[C@H]1C[C@H](N)[C@H](O)[C@H](C)O1` [Doxorubicin Hcl], where the note is “HDQ-P1”, the HSA volume was −1.23 and the “Synergy Score” value stood at 3.52. With `CC1(C)CCC(c2ccc(Cl)cc2)=C(CN2CCN(c3ccc(C(=O)NS(=O)(=O)c4ccc(N[C@H](CCN5CCOCC5)CSc5ccccc5)c(S(=O)(=O)C(F)(F)F)c4)cc3)CC2)C1` [ABT-263], the “Loewe Volume” value (HCC38) is 20.66.
